Reference: ChEMBL document CHEMBL4196121, “Meridianin D Analogues Display Antibiofilm Activity against MRSA and Increase Colistin Efficacy in Gram-Negative Bacteria” (ACS Med Chem Lett, 2018)

Legend:
Klebsiella pneumoniae [1] = experiment: Antibacterial activity against Klebsiella pneumoniae isolate C3 after 16 hrs by broth microdilution assay
Escherichia coli [2] = experiment: Antibacterial activity against Escherichia coli ATCC 25922 after 16 hrs by broth microdilution assay; format: organism-based
Acinetobacter baumannii [3] = experiment: Antibacterial activity against Acinetobacter baumannii isolate 3941 after 16 hrs by broth microdilution assay; format: organism-based
Klebsiella pneumoniae [4] = experiment: Antibacterial activity against Klebsiella pneumoniae isolate B9 after 16 hrs by broth microdilution assay; details: in vivo
Acinetobacter baumannii [5] = experiment: Antibacterial activity against Acinetobacter baumannii ATCC 17978 after 16 hrs by broth microdilution assay; format: organism-based
Klebsiella pneumoniae [6] = experiment: Antibacterial activity against Klebsiella pneumoniae ATCC 2146 expressing NDM1 gene after 16 hrs by broth microdilution assay; format: organism-based
Escherichia coli [7] = experiment: Antibacterial activity against Escherichia coli ATCC 25922 expressing mcr1 gene after 16 hrs by broth microdilution assay; format: organism-based; details: in vitro
Acinetobacter baumannii [8] = experiment: Antibacterial activity against Acinetobacter baumannii ATCC 19606 after 16 hrs by broth microdilution assay; format: organism-based, ATCC 19606 = CIP 70.34 = JCM 6841
Acinetobacter baumannii [9] = experiment: Antibacterial activity against Acinetobacter baumannii isolate 4106 after 16 hrs by broth microdilution assay; format: organism-based
Acinetobacter baumannii [10] = experiment: Antibacterial activity against Acinetobacter baumannii isolate 5075 after 16 hrs by broth microdilution assay; format: organism-based
Acinetobacter baumannii [11] = experiment: Antibacterial activity against Acinetobacter baumannii ATCC 17978 expressing mcr1 gene after 16 hrs by broth microdilution assay; format: organism-based; details: in vitro

Measured: MIC

Cl.Nc1nccc(-c2c[nH]c3ccccc23)n1
> 200 µM: all assays above

Cl.Nc1nccc(-c2c[nH]c3cccc(Br)c23)n1
> 200 µM: all assays above

Cl.Nc1nccc(-c2c[nH]c3c(Br)cccc23)n1
> 200 µM: all assays above

Cl.Nc1nccc(-c2c[nH]c3cc(Cl)ccc23)n1
> 200 µM: all assays above
